A selection: hits, their analogues and other compounds. The true share with any hit is near 16%.
DT40 TDP1 CPT – DT40-hTDP1 cell growth loss with CPT; chicken DT40 Tdp1-/-;hTDP1 cells + 20 nM CPT, ATP luminescence, 48 h; hit rate 12% among 420,000; Potency, µM (highest dose often 46.2 µM), usual class: inhibitors; further: nearly all actives have a fitted effect of over 55% in size
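Cell growth measured by CellTiter-Glo luminescence after a minimum 48 h, 37 C compound exposure with 20 nM CPT in Tdp1-knockout DT40 cells stably expressing hTDP1, seeded 400/well; qHTS titration format.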
uPA surface inh – blocks generation of uPA at the cell surface; hit rate 0.31% among 330,000; Potency, µM (top dose mostly 38.3 µM), actives largely listed as inhibitors; cell surface uPA generation assay, qHTS; active means well fitted inhibition curve with a large enough effect; inconclusive means small, poorly fitted or top-dose-only effect; inactive means no such curve, though single readings can be large or run the other way; tested in mouse RAW 264.7 cells; further: nearly all actives have a fitted effect of over 55% in size
miR-21 reporter – miR-21 reporter, rising signal | AID 2288 | HeLa miR-21 FLuc reporter, luciferase, 48 h | 340,000 tested, under 10 active | Potency, µM (doses to about 38.3 µM); active = well fitted rising curve with a large enough effect; inconclusive = small, poorly fitted or top-dose-only effect; inactive = no such curve, though single readings can be large or run the other way;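 note: miR-21 action dims this reporter so a rising signal means less miR-21 action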
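Compounds were titrated across several concentrations (up to approximately 40 uM) and incubated 48 hours with HeLa miR-21-FLuc reporter cells (miR-21 target sequence downstream of FLuc, endogenous miR-21). Readout was firefly luciferase luminescence after lytic detection reagent.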
TDP1 cell noCPT – qHTS for Inhibitors of human tyrosyl-DNA phosphodiesterase 1 (TDP1): qHTS in cells in absence of CPT. DT40 Tdp1-/- hTDP1 cells, no CPT, ATP luminescence, 48 h. Potency, µM (doses to about 46.2 µM), hits mostly inhibitors. hit rate 15% among 420,000; further: nearly all actives have a fitted effect of over 55% in size
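Cells were dispensed at 400 per well, compounds added by pin tool, plates incubated ≥48 hr at 37 °C, then CellTiter-Glo added for 30 min at room temperature before luminescence reading. Line: DT40 Tdp1-/- complemented with hTDP1; camptothecin omitted.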
TDP1 inh – TDP1 (human) enzyme inhibition | recombinant TDP1, AlphaScreen DNA substrate cleavage | hit rate 0.28% among 350,000 | Q9NUW8 | Potency, µM (titrated, usually from 130 µM), hits mostly inhibitors; further: nearly all actives have a fitted effect of over 40% in size
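Recombinant E. coli-expressed Tdp1 (1 nM) preincubated with compound 15 min at RT, then 5'-biotin/3'-phosphotyrosine-FITC DNA substrate (15 nM) added for 5 min. AlphaScreen beads (10 ug/ml) added, 10 min RT; tyrosine-FITC cleavage read as signal loss.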
Large screens that a line does not name were inactive. Unless noted, the call rests on the fitted dose curve; in most records, active means well fitted curve in the direction sought with a large enough effect; inconclusive means small, poorly fitted or top-dose-only effect, or another doubt; inactive means no such curve, though single readings can be large; an effect the other way counts as inactive or inconclusive.

COc1ccc2cc(C3CC(c4cccs4)=NN3C(C)=O)c(Cl)nc2c1 (centres undefined)	none (no result: TDP1 inh)
CNS(=O)(=O)c1cc(Nc2ncnc3sccc23)ccc1C	DT40 TDP1 CPT 14.6µM, TDP1 cell noCPT inconclusive (no result: TDP1 inh)
Fc1ccc(SCCc2ccccn2)cc1	none
CN(C(=O)CC1C(=O)NCCN1Cc1cccc(F)c1F)C1CC(C)(C)NC(C)(C)C1 (centres undefined)	none
CC1(C(=O)Nc2ccc(Cl)c(Cl)c2)CCN1Cc1ccccc1OC(F)F (centres undefined)	DT40 TDP1 CPT 16.4µM, TDP1 cell noCPT 11.6µM (no result: uPA surface inh, miR-21 reporter, TDP1 inh)
CC(=O)N1CCc2cc(NC(=O)C3(C)CCN3Cc3ccccc3Cl)ccc21 (centres undefined)	TDP1 cell noCPT inconclusive (no result: uPA surface inh, miR-21 reporter, TDP1 inh)
COc1ccc(NC(=O)C2(C)CCN2Cc2ccccc2OC(F)F)cc1OC (centres undefined)	DT40 TDP1 CPT inconclusive, TDP1 cell noCPT 11.6µM (no result: uPA surface inh, miR-21 reporter, TDP1 inh)
O=[N+]([O-])c1cc([N+](=O)[O-])c(Oc2ccccc2F)cc1NN1CCCCC1	DT40 TDP1 CPT inconclusive (no result: TDP1 inh)
O=[N+]([O-])c1cc([N+](=O)[O-])c(Oc2cccc(Cl)c2Cl)cc1NN1CCCCC1	DT40 TDP1 CPT 23.1µM, TDP1 cell noCPT inconclusive (no result: TDP1 inh)
COc1cc(C(C)=O)ccc1Oc1cc(NN2CCCCC2)c([N+](=O)[O-])cc1[N+](=O)[O-]	DT40 TDP1 CPT 23.1µM, TDP1 cell noCPT inconclusive (no result: TDP1 inh)
Cc1cc(Oc2cc(NN3CCCCC3)c([N+](=O)[O-])cc2[N+](=O)[O-])c(C(=O)c2ccccc2)cc1Cl	DT40 TDP1 CPT 20.6µM, TDP1 cell noCPT inconclusive (no result: TDP1 inh)
CC1(C)Cc2cccc(Oc3cc(NN4CCCCC4)c([N+](=O)[O-])cc3[N+](=O)[O-])c2O1	DT40 TDP1 CPT inconclusive, TDP1 cell noCPT 16.4µM (no result: TDP1 inh)
COc1cc(C(=O)Nc2ccc(S(=O)(=O)Nc3nccc(C)n3)cc2)c([N+](=O)[O-])cc1OC	none
CCN(CC(=O)Nc1c(F)cccc1F)C(=O)c1ccc(S(=O)(=O)N2CCCC2)cc1	TDP1 cell noCPT inconclusive (no result: miR-21 reporter)
Cc1cccc(N2CCN(C(=O)C3CCC(CNS(=O)(=O)c4ccc(Br)s4)CC3)CC2)c1C (centres undefined)	DT40 TDP1 CPT inconclusive, TDP1 cell noCPT inconclusive (no result: uPA surface inh)
COc1cccc(N2CCN(C(=O)C3CCC(CNS(=O)(=O)c4ccc(Br)s4)CC3)CC2)c1 (centres undefined)	DT40 TDP1 CPT 7.31µM, TDP1 cell noCPT 6.51µM (no result: uPA surface inh)
CCOc1ccc(NC(=O)C2CCC(CNS(=O)(=O)c3ccc(Br)s3)CC2)cc1 (centres undefined)	TDP1 cell noCPT inconclusive (no result: uPA surface inh)
O=C(C1CCC(CNS(=O)(=O)c2ccc(Br)s2)CC1)N1CCN(c2ccccc2Cl)CC1 (centres undefined)	DT40 TDP1 CPT 9.2µM, TDP1 cell noCPT 8.2µM (no result: uPA surface inh)
O=C(C1CCC(CNS(=O)(=O)c2ccc(Br)s2)CC1)N1CCN(c2ccc(F)cc2)CC1 (centres undefined)	DT40 TDP1 CPT inconclusive, TDP1 cell noCPT 4.11µM (no result: uPA surface inh)
COc1cccc(CNC(=O)C2CCC(CNS(=O)(=O)c3ccc(Br)s3)CC2)c1 (centres undefined)	DT40 TDP1 CPT 23.1µM, TDP1 cell noCPT inconclusive (no result: uPA surface inh)
CC(C)CCNC(=O)C1CC(c2ccccc2C(F)(F)F)=NO1 (centres undefined)	none
Cc1cc(C)cc(OCC(=O)N2CCc3ccccc3C2)c1	uPA surface inh inconclusive
C=CCN(Cc1ccc(OC)c(OC)c1)C(=O)c1cc2cc(F)ccc2[nH]1	DT40 TDP1 CPT 13µM, TDP1 cell noCPT inconclusive (no result: TDP1 inh)
Cc1cc(C(=O)CN2C(=O)NC(C)(CC(C)C)C2=O)c(C)n1-c1ccc2c(c1)OCO2 (centres undefined)	DT40 TDP1 CPT inconclusive, TDP1 cell noCPT 23.1µM
Cc1cc(C(=O)CN2C(=O)NC3(CCCCC3)C2=O)c(C)n1Cc1ccc2c(c1)OCO2	DT40 TDP1 CPT 8.2µM, TDP1 cell noCPT 23.1µM
Cc1ccc(Nc2nc3c(S(=O)(=O)c4ccccc4)nnn3c3ccc(Cl)cc23)c(C)c1	DT40 TDP1 CPT inconclusive, TDP1 cell noCPT inconclusive (no result: uPA surface inh)
CCCCN(C)c1nc2c(S(=O)(=O)c3ccc(CC)cc3)nnn2c2ccc(Cl)cc12	DT40 TDP1 CPT 11.6µM, TDP1 cell noCPT 10.3µM (no result: uPA surface inh)
